In this test the target is Protease (Human immunodeficiency virus 1, UniProt Q9YQ12). Description: Inhibition of HIV1 protease.

Regarding `CC(C)(C)NC(=O)[C@@H]1CN(Cc2cccnc2)CCN1C[C@@H](O)C[C@@H](Cc1ccccc1)C(=O)N[C@H]1c2ccccc2C[C@H]1O` [INDINAVIR], it took 0.4 nM to reach half-maximal inhibition (IC50).

These data come from ChEMBL document CHEMBL1142484, “Design and synthesis of sulfoximine based inhibitors for HIV-1 protease” (Bioorg Med Chem Lett, 2008).
